{"sequences": {"note": "Chains of the proteins cited; added tags and fusions are not shown. Residues count along the entry.", "UniProt P01589, 22-240, chain 1 of 3": "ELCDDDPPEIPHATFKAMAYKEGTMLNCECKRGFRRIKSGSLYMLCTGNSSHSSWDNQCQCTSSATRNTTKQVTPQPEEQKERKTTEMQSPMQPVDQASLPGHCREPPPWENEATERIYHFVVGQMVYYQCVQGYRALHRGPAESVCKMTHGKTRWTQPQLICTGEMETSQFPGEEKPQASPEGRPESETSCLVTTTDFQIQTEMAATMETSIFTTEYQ", "UniProt P60568, 21-153": "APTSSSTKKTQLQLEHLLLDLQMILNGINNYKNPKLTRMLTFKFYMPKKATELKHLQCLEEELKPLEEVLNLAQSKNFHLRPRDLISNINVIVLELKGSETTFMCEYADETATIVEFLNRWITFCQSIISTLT"}, "source": "paper PMC3515962", "origin": "cited, not measured here", "target": "IL-2 receptor (Homo sapiens) (UniProt P01589)", "experiment": "radioligand binding"}
{"substance": "TCGF (IL-2) (from UniProt P60568)", "values": [{"measurement": "Kd", "result": 7.5, "unit": "pM"}]}
